Patent US11844811B2, “Methods and compositions for alleviating respiratory dysfunction” (MYFITSTRIP LLC, priority 2018, dated 2023)

Settings: subject 2, 1,000 mg KNO3 (12 mgNO3/Kg) at 10:00

## O=[N+]([O-])[O-].[K+] [KNO3, potassium nitrate]
Time 1:00PM
  Salivary NO2: <435 µM
Time 11:00
  Salivary NO2: 435 µM

Like-named read-outs stand apart in the source and are kept apart here.
